From ChEMBL document CHEMBL4020848, “Antibacterial Activity Affected by the Conformational Flexibility in Glycine-Lysine Based α-Helical Antimicrobial Peptides” (J Med Chem, 2018)

System: Escherichia coli
Experiment: Antibacterial activity against Escherichia coli ATCC 25922 after 18 hrs by microdilution method
Format: functional
Conditions: ATCC 25922, 18 h

CC[C@H](C)[C@H](NC(=O)CN)C(=O)NCC(=O)N[C@@H](C)C(=O)N[C@H](C(=O)N[C@@H](CC(C)C)C(=O)N[C@@H](CCCCN)C(=O)N[C@H](C(=O)N[C@@H](CC(C)C)C(=O)N[C@H](C(=O)N[C@H](C(=O)NCC(=O)N[C@@H](CC(C)C)C(=O)N1CCC[C@H]1C(=O)N[C@@H](C)C(=O)N[C@@H](CC(C)C)C(=O)N[C@H](C(=O)N[C@@H](CO)C(=O)N[C@@H](Cc1c[nH]c2ccccc12)C(=O)N[C@H](C(=O)N[C@@H](CCCCN)C(=O)N[C@@H](CCCNC(=N)N)C(=O)N[C@@H](CCCCN)C(=O)N[C@@H](CCCNC(=N)N)C(=O)N[C@@H](CCC(N)=O)C(=O)N[C@@H](CCC(N)=O)C(N)=O)[C@@H](C)CC)[C@@H](C)CC)[C@@H](C)O)[C@@H](C)O)C(C)C)C(C)C [MELITTIN]
MIC: 10 µM (≈ 28.5 µg/mL)

In brackets after ≈: the same amount, converted by molar mass.
